Measured values reported in patent EP0950398A2, “Use of esters as dispersants or solvents in sunscreens and solar protection pigments” (Henkel Kommanditgesellschaft auf Aktien, priority 1998, dated 1999).

Format: physicochemical
Conditions: result in words, comparison of all tested oil bodies

CCCCOC(=O)CCCCC(=O)OCCCC [Dibutyl Adipate]
Löslichkeit für die verschiedenen Filtertypen: beste Löslichkeit
